The numbers were not newly measured in publication PMC4330465 (Journal of Computer-Aided Molecular Design, 2014), which cites them from elsewhere.

Amino acid sequences for entries named in this document (tags omitted). Residues count along the entry.
UniProt P22303, 32-614 limits assumed: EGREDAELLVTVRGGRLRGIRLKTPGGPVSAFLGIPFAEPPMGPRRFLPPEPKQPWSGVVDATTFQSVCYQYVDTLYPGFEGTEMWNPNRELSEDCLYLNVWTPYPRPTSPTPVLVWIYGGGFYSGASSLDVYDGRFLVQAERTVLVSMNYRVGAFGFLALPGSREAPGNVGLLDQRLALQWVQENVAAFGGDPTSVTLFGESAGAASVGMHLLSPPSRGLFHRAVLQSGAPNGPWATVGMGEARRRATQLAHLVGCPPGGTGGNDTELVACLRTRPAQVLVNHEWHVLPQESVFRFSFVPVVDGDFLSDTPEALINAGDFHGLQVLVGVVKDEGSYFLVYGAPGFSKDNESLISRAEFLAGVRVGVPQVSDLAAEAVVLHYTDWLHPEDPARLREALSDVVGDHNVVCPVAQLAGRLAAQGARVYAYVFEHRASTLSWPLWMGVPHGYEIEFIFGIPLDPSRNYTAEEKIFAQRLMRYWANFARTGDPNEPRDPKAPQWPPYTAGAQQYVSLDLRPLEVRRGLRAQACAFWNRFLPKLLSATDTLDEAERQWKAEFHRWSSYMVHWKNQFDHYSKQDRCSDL

The series deals with Recombinant Homo sapiens AChE (Homo sapiens, UniProt P22303). The following applies: test set Set3 (Table S15); cited from earlier work.

As for `CCN(CC)CCNS(=O)(=O)Cc1ccc(C(F)(F)F)cc1`, the IC50 was 17 µM. For `CCN(CC)CCNS(=O)(=O)Cc1ccc(C)cc1`, the IC50 is 51 µM. Turning to `CCN(CC)CCNS(=O)(=O)c1ccc(OC)cc1`, the 50% inhibitory concentration (IC50) is 118 µM. Regarding `CCN(CC)CCNS(=O)(=O)Cc1ccccc1`, the IC50 is 134 µM. For the compound `CCN(CC)CCNS(=O)(=O)c1ccc(Oc2c(Cl)cccc2[N+](=O)[O-])cc1`, the IC50 is 0.7 µM. On to `CCN(CC)CCNS(=O)(=O)c1ccc([N+](=O)[O-])cc1`, for which the IC50 is 162 µM. Regarding `CCN(CC)CCNS(=O)(=O)Cc1ccc(Br)cc1`, the concentration for half-maximal inhibition (IC50) is 11 µM. In the case of `CCN(CC)CCNS(=O)(=O)c1ccccc1F`, the IC50 is 42 µM. In the case of `CCN(CC)CCNS(=O)(=O)c1ccc(Cl)cc1`, the IC50 is 91 µM. As for `CCN(CC)CCNS(=O)(=O)c1cccc(Cl)c1`, the IC50 was 19 µM. `CCN(CC)CCNS(=O)(=O)c1ccc(F)cc1`: the IC50 was 65 µM. With `CCN(CC)CCNS(=O)(=O)Cc1ccc(Cl)c(Cl)c1`, the IC50 is 6.8 µM. `CCN(CC)CCNS(=O)(=O)c1cccc2ccccc12`: the IC50 is 38 µM. Consider `CCN(CC)CCNS(=O)(=O)c1cccc(C(F)(F)F)c1`, for which the half-maximal inhibitory concentration (IC50) was 24 µM. As to `CCN(CC)CCNS(=O)(=O)c1ccc(Cl)cc1F`, the concentration for half-maximal inhibition (IC50) is 94 µM. Take `CCN(CC)CCNS(=O)(=O)c1ccc(F)c(F)c1`: the IC50 was 51 µM. Turning to `CCN(CC)CCNS(=O)(=O)Cc1ccc(F)cc1`, the IC50 is 42 µM. With `CCN(CC)CCNS(=O)(=O)c1ccccc1`, the half-inhibitory concentration (IC50) is 33 µM.

What is called IC50 is the concentration at which inhibition is half-maximal.
